The record followed here is PubChem BioAssay AID2675 (National Center for Advancing Translational Sciences (NCATS), 2010).

Chains of the proteins cited; added tags and fusions are not shown.
UniProt Q9NR56, whole entry: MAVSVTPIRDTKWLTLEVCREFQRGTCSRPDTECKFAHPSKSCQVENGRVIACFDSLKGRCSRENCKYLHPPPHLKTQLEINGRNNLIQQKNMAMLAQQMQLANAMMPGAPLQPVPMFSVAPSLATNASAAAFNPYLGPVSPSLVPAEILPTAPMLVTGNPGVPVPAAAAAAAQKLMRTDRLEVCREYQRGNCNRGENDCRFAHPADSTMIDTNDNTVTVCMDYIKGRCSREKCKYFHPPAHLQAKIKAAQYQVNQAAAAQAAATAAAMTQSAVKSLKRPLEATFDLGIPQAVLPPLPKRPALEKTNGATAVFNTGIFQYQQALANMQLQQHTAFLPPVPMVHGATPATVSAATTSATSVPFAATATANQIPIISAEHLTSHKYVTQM

The structures appear in SMILES notation. This is a selection; strong and weak results do not stand in their true shares. Records with an inconclusive call do not appear. The source made the active and inactive calls. Calls come from the whole dose curve; as a rule, active = well fitted inhibition curve with a large enough effect in the signal ratio, with a control signal flat (not every such curve was filed as active); inconclusive = small, poorly fitted or top-dose-only effect, or effect the other way, or a change in a side signal; inactive = no such curve, though single readings can be large or run the other way; the % refers to the signal ratio.
% is set by controls: 0 for no effect and ±100 for the full control effect.

This test deals with Muscleblind-like protein 1 (Homo sapiens) (UniProt Q9NR56). Put plainly: qHTS Assay for Inhibitors of MBNL1-poly(CUG) RNA binding. As to conditions: TR-FRET MBNL1-His/biotin-(CUG)12 binding, 665/545 ratio; at 57.5 µM (top of the series).
Take `NC(=O)Nc1ccc([As](=O)(O)O)cc1`: the activity change, negative = inhibition was inactive: 4.49%.
